## Binding of CDR-mutated scFvs to a peptide of the spike HR2 region

Antigen: PDVDLGDISGINAS, a 14-residue peptide of the SARS-CoV-2 spike HR2 region.

Ab-91 is the parent antibody, in scFv form: VL, then a (GGGGS)3 linker, then VH. The light chain is unchanged in all variants.
VL: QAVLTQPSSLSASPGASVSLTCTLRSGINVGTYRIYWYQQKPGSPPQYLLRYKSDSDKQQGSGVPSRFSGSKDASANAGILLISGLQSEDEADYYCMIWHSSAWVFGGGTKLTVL
VH: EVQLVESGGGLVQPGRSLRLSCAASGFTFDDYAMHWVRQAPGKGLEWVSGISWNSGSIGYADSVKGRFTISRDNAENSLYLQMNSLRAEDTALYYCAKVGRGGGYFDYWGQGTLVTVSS

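The starting antibody came from a phage panning campaign against this peptide. Library AAYL51 holds single substitutions and randomly drawn double and triple substitutions in the CDRs. The assay is AlphaSeq: two haploid yeast populations carry antibody and antigen on their surface. Mating (16 h, 30 °C) was followed by selection of diploids and sequencing of their barcodes. The ratio of observed to expected reads was calibrated, replicate by replicate, on BCL2-family standards whose Kd was known from biolayer interferometry. Each pool was mated in three replicate cultures.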

Variants are written as CDR1, CDR2 and CDR3 of the heavy chain (limits as in the source). Parent: GFTFDDYAMH, GISWNSGSIGYADSVK, VGRGGGYFDY. Scale: log10 of Kd in nM, estimated from mating counts; low values are strong binders. A mean of the replicates is given; it leaves out those without a signal. Where no diploid with the target was found in that replicate, the entry reads "ND": below detection, most likely a poor binder, though not proof of it. For reference, the parent read 1.86 as the reference entry and 0.88 as a member of this library.

| # | CDR-H1 | CDR-H2 | CDR-H3 | log10 Kd (nM) by replicate | mean, log10 nM | signal with controls |
|---|---|---|---|---|---|---|
| 1 | GFTFDDYAMH | GISWNSGSIGYMDSVK | IGRGVGYFDY | 1.46 1.59 1.35 | 1.47 | 1/9 (4.64) |
| 2 | GFTFDDYAMH | GISWNSGSIGYGDSDK | VGRGGGYDDY | ND ND ND | ND | 2/9 (4.13) |
| 3 | GWTFDDYAMH | GIEWNSGSIGYKDSVK | VGRGGGYFDY | 4.39 5.03 4.59 | 4.67 | 3/9 (5.34) |
| 4 | GTTFDDYAMH | GISWNSGSIGHADSVK | VGRGGGYVDY | ND ND 2.91 | 2.91 | 1/9 (3.75) |
| 5 | GFTFDDYAMH | GISCNSESIGYADSVK | VGRGGGYFDY | 2.26 1.34 ND | 1.80 | 1/9 (3.10) |
| 6 | GFTFYDYAMH | GISWHSGSIGYMDSVK | VGRGGGYFDY | ND ND ND | ND | 0/9 |
| 7 | GFTFDDYAMH | GISWNSGSIGYADSVK | TGQGGGGFDY | 4.69 ND 5.32 | 5.00 | 2/9 (4.86) |
| 8 | GFTFDDYAMH | GISWNQGSIMYADSVE | VGRGGGYFDY | ND ND ND | ND | 0/9 |
| 9 | KFTFDDYAMH | GISWNSGSIGYADSVK | VGRGGQYFSY | 3.66 4.20 ND | 3.93 | 0/9 |
| 10 | GFTFDDYAMH | AISWNSGSILYADSAK | VGRGGGYFDY | ND ND ND | ND | 0/9 |
| 11 | HFTFDDYAMH | MISWNSGSIGYADKVK | VGRGGGYFDY | ND ND ND | ND | 0/9 |
| 12 | GFTFDDQAEH | GISWNSGSIGYADSLK | VGRGGGYFDY | ND ND ND | ND | 3/9 (3.43) |
| 13 | GFTFGDYAMH | GISWNSQSIGYADSVK | VGRGGGYEDY | 0.61 0.62 -0.09 | 0.38 | 1/9 (5.00) |
| 14 | GFTFDDYAMH | GISWNSGSIGYADCVK | VGRGGVDFDY | 4.68 5.51 6.03 | 5.41 | 5/9 (5.29) |
| 15 | GFTFDDYGMH | GISWMSGSIGYADSVD | VGRGGGYFDY | 3.33 2.62 3.18 | 3.04 | 1/9 (4.19) |
| 16 | GFTFDDYVMH | GTSWNSGSIGYADSVK | VGRGTGYFDY | 4.83 4.68 4.93 | 4.81 | 1/9 (4.30) |
| 17 | IFTFDIYAMH | GASWNSGSIGYADSVK | VGRGGGYFDY | ND ND ND | ND | 0/9 |
| 18 | SFYFDDYAMH | GISWNSGSIGYASSVK | VGRGGGYFDY | ND ND ND | ND | 1/9 (5.10) |
| 19 | GFTFDDYAMH | GIFWSSGSIGYADSVK | VGRGGGYFDY | ND ND ND | ND | 0/9 |
| 20 | QFTFDDYAMH | GISWNSGSITYAHSVK | VGRGGGYFDY | ND ND ND | ND | 0/9 |
| 21 | YFTFDDYAGH | GISWNSGSIGYADSVH | VGRGGGYFDY | ND ND ND | ND | 2/9 (3.71) |
| 22 | GFEFDDYAMY | GISWNSGSIGYADSVK | VGRGAGYFDY | ND ND ND | ND | 0/9 |
| 23 | GFTFDDYAMH | GISWNSGSIGYADSVK | VGRGGAYFDY | ND ND ND | ND | 1/9 (3.20) |
| 24 | GFTFDDQAMH | GISWNMGSIGYADSVK | VGRQGGYFDY | ND ND ND | ND | 0/9 |
| 25 | GFLFDDYAMH | GIKCNSGSIGYADSVK | VGRGGGYFDY | 4.35 4.95 5.09 | 4.80 | 4/9 (4.56) |
| 26 | GFTFDDYAMH | GISKNSGSIGIDDSVK | VGRGGGYFDY | ND 4.81 ND | 4.81 | 3/9 (4.64) |
| 27 | GFTHDDYAMH | GISWNSGSQGYARSVK | VGRGGGYFDY | ND ND ND | ND | 1/9 (3.48) |
| 28 | GFTFDDYAMH | GISPNSGSIGYADSVK | VGQGGGYHDY | ND ND ND | ND | 1/9 (4.69) |
| 29 | GFTFDDFAMH | GISRNSGSIGYADSVK | VGRGGGYFDG | ND ND 3.58 | 3.58 | 0/9 |
| 30 | GFTFDDYAMH | GHSWNSGSIGYAVSVK | VCRGGGYFDY | 4.99 5.60 5.32 | 5.30 | 3/9 (4.54) |
| 31 | GFTFDDYYMH | EISWNSGSIGYADSVK | VGRGGGKFDY | ND ND ND | ND | 0/9 |
| 32 | GFTFDDYAMH | GVSWNSGSIGYADSVK | VGRGRGYFDY | ND ND 4.25 | 4.25 | 0/9 |
| 33 | GFTQDDYAMH | GISWNSGSIGYADCVK | VGRGGFYFDY | 3.86 4.21 5.02 | 4.36 | 4/9 (4.55) |
| 34 | GFTADDYAMH | GISWNFGSIGYADSVK | VGKGGGYFDY | ND ND 4.67 | 4.67 | 1/9 (4.59) |
| 35 | GFTFDDYAIH | GISWNSGSIGYAWSVK | VGRGGGPFDY | ND ND ND | ND | 0/9 |
| 36 | GFIFDDYTMH | GISWNSGSIGYADSVK | VGRGGGMFDY | ND ND ND | ND | 1/9 (3.78) |
| 37 | GFTFDDYAMH | SISWNSGSIGYRDSVK | VGRGWGYFDY | 4.66 ND 5.53 | 5.09 | 2/9 (4.32) |
| 38 | GFTFDDYAMH | GISCNSGSIGYADSVK | VGRGGGYFIY | 2.13 2.76 ND | 2.45 | 0/9 |
| 39 | GFTFDDYAMH | GISWVSGSIGNADSVK | VGRGGGGFDY | 5.59 ND 5.48 | 5.54 | 5/9 (5.22) |
| 40 | GFTFDDYMMH | GISWNSGSIGYADSVE | VGRAGGYFDY | 3.77 ND 3.55 | 3.66 | 3/9 (4.31) |

The last 2 entries again:

CDR-H1	CDR-H2	CDR-H3	log10 Kd (nM) by replicate	mean, log10 nM	signal with controls
GFTFDDYAMH	GISWVSGSIGNADSVK	VGRGGGGFDY	5.59 ND 5.48	5.54	5/9 (5.22)
GFTFDDYMMH	GISWNSGSIGYADSVE	VGRAGGYFDY	3.77 ND 3.55	3.66	3/9 (4.31)

Nonspecific signal, from three strains lacking the peptide, appeared in 21% of pairings of library AAYL51, centred on 4.54 (5% of these signals below 3.26); values are not corrected for it. For each scFv, signals with the empty controls are counted beside the result, with their mean in brackets.

Data: MIT Lincoln Laboratory AlphaSeq set, Engelhart et al. 2022, doi:10.1038/s41597-022-01779-4, as distributed in FLAb.